Antibody variant affinities, Ab-14 heavy chain, assay B

Source: Li et al. 2023 (doi:10.1038/s41467-023-39022-2), MIT Lincoln Laboratory and A-Alpha Bio; data file from the FLAb repository.

All variants were tested on one target, the spike HR2 peptide PDVDLGDISGINAS (SARS-CoV-2).

Ab-14 is the parent antibody, in scFv form: VH, then three GGGGS repeats, then VL. The light chain is unchanged in all variants.
VH: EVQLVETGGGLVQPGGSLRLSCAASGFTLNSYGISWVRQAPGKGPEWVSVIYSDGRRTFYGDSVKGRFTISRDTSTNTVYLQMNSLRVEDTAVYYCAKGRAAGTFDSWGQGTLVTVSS
VL: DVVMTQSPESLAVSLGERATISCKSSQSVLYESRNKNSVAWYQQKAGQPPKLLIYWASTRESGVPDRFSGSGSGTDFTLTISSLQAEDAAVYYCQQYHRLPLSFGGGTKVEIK

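The parent was found by panning a naive human phage display library on the peptide. These sequences belong to a second round, designed from the earlier measurements on random variants of the parent. Several design methods are mixed in this list. In AlphaSeq, yeast of one mating type display the scFv and yeast of the other type display the target. The frequency of each diploid, read from paired DNA barcodes, reflects how well the two displayed proteins bind. Each replicate has its own calibration line, from reference interactions of the BCL2 family. The assay was run in six technical replicates.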

Variants are written as CDR1, CDR2 and CDR3 of the heavy chain (limits as in the source). Parent: GFTLNSYGIS, VIYSDGRRTFYGDSVK, GRAAGTFDS. Affinities are written as log10 Kd with Kd in nM; a lower number is a better binder. The mean shown is taken over the replicates in which the pair was detected. A pair that was not seen in any replicate is written "nd"; this usually means weak binding, but a binder can also be missed. In the paper, a design with two or fewer of six values counts as a poor binder. As a blank, each scFv also met three strains without target: over all heavy chain designs, 1% of these pairings were detected, typically at 2.08 and seldom below 0.84. The range of this assay differs from that of the first round, and the authors advise against merging the two.

CDR-H1 | CDR-H2 | CDR-H3 | mean log10 Kd (nM) | replicates with signal
GFDLNEYGIS | VIYADGQRTFYADSVK | GKIAGTFNV | -1.01 | 6/6
GFDLDEYGIS | VIYADGKRTAYADDVK | GEVAGTFDV | -0.23 | 6/6
GFKLDEYGIS | VIYADGQRAVYTENVK | GHGFNSLVG | 0.65 | 6/6
GFQLNTYGIS | VIYSDGRRTFYSDSVK | GEAAGTFDS | 0.49 | 6/6
GFTLNSYGIS | VIYSDGRRTFYGDSVR | GHWGGTFDS | 0.87 | 3/6
MFDLNSYGIS | VIYSDGRRTFYGDSVK | GREAGTFDQ | 0.87 | 2/6
GFDLDEYGIS | VIYADGMRTAYSDSVK | GNQAGTFDI | -0.60 | 6/6
GFALNEYGIS | VIYADGSRSAYTESVK | GVHNGDVNI | nd | 0/6
GFSLNDYGIS | VIYSDGRRTFYGDSVK | GRTAGTFDG | 0.03 | 6/6
GFTLNSYGIS | VIYSDGGRTAYGDSVK | GRARGTPDS | nd | 0/6
GFDLDEYGIS | VIYADGKRTAYADSVK | GNNAGTFDM | -0.16 | 6/6
GFDLQEYGIS | VIYADGQRQEYSDDVK | GQTAGHFLH | nd | 0/6
GDSLAEYGIS | VIYADGMRSKYSDAFK | GQVAGYFGV | nd | 0/6
GFWLNDYGIS | VIYSDGRRTVYIDSVK | GRAAGTFDS | 1.65 | 2/6
GFNLNTYGIS | VIYSDGRRTMYGDSVK | GRTAGTFDS | 0.08 | 6/6
GFNLDEYGIS | VIYADGMRTAFGDNVK | GTNFGFTVF | nd | 0/6
GFDLEKYGIS | VIYADGRRSVYADNVK | GMLGATNGY | nd | 0/6
GFTLNSYGIS | VIYSDGRRTFYGDSVL | GRAAGTFDS | nd | 0/6
GFDLNEYGIS | VIYADGVRTAYADKVK | GNVAGTFDL | 0.49 | 6/6
GFDLNEYGIS | VIYADGKRTAYADDVK | GQVAGTFDV | -0.26 | 6/6
GFSLEEYGIS | VIYADGKRTFYTNAVK | GTWGDFGLG | nd | 0/6
GADLNEMGIS | VIYADGDRKAYQDAVK | GDVSGDFDE | nd | 0/6
GFTLNEYGIS | VIYSDGMRTFYGDSVK | GRTAGTFDT | 0.06 | 6/6
GFTLNEYGIS | VIYADGRRTFYKDSFK | GWAAGTFDS | 0.72 | 6/6
GFDLNSYGIS | VIYSDGMRTFYADSVK | GRTAGTFDS | 0.24 | 6/6
GFSLNSYGIS | VIYSDGRRTFYDDSVK | GKEAGTFDS | -0.30 | 6/6
GFTLNSYGIS | VIYADGRRTFYGDSVK | GRVAGTFDV | 0.07 | 4/6
GFSLNSYGIS | VIYSDGRRTFYADSVK | GRAAGKFMS | nd | 0/6
GFDLNEYGIS | VIYADGMRTAYADDVK | GTNAGTFDM | -0.30 | 6/6
GFDLNEYGIS | VIYADGMRTAYTDDVK | GNNAGTFDI | -0.19 | 6/6
GFELNSYGIS | VIYSDGRRTFYLDSVK | GNAAGTFDS | 2.36 | 4/6
GFTINSYGIS | VIYSDGRRTFYSDSVK | GRAAGLKDS | 1.45 | 1/6
GFDLEEYGIS | VIYADGKRMAYSNKVK | GLMAGTMID | nd | 0/6
GYTLNSYGIS | VIYSDGRRTFYIDSVK | GQLAGTFDS | nd | 0/6
GETLNSYGIS | VIYSDGRRTFYGDSVK | GRARGYFMS | nd | 0/6
GFTLNSYGIS | VIYRDGRRTAYGDSVK | GRAAGTFDS | nd | 0/6
GFDLNEYGIS | VIYADGMRKAYADSVK | GNVAGTFDT | -0.55 | 6/6
GFSLDEMGIS | VIYADGQRTAYQASVK | GQNIGNVFV | nd | 0/6
GFDLNEYGIS | VIYADGKRTAYADDVK | GNTAGTFDV | -0.34 | 6/6
GFTLNEHGIS | VIYSDGRRTFYGDSVK | GRAAGYFDM | 1.37 | 6/6
GHTLNSYGIS | VIYSDGRRTFYEDSVK | GRAAGTFFS | nd | 0/6
GFDLNEYGIS | VIYADGKRTAYANSVK | GNVAGTFDQ | -0.74 | 6/6
GFSLNSYGIS | VIYSDGRRTFYVDSVK | GRTAGTFDS | 0.74 | 3/6
GFELNSYGIS | VIYSDGRRTFYADSVK | GREAGTFDS | -0.37 | 6/6
GFTLNSYGIS | VIYSDGKRTFYSDDVK | GQAAGTFDL | -0.01 | 6/6
GFNLDEFGIS | VIYADGQRTAYLDSFK | GENVNAVDT | nd | 0/6
GFNLEDYGIS | VIYADGRRTFYADSVK | GKVAGTFDV | -0.48 | 6/6
GFDLNSYGIS | VIYSDGRRTFYGDSVK | GKVAGTFDS | -0.14 | 6/6
GFELNDYGIS | VIYSDGRRTQYIDSVK | GRAAGTFDS | 1.15 | 6/6
GFTLNDYGIS | VIYSDGRRTQYIDSVK | GAAAGTFDS | 0.72 | 6/6
GFDLNEYGIS | VIYADGVRTAYADSVK | GTNAGTFDI | -0.39 | 6/6
GFDLNSYGIS | VIYSDGRRTFYKDSVK | GRQAGTFDS | -0.07 | 6/6
GFDLNSYGIS | VIYSDGRRTFYVDRVK | GQAAGTFDF | 0.82 | 1/6
GFDLNEYGIS | VIYADGKRTAYIDSVK | GQNAGTFDV | -0.42 | 6/6
GFDLEEMGVS | VIYHDGIRTAYHQKVK | GQAAGTFDL | nd | 0/6
GKSLDEYGIS | VIYADGMRTMYTDSVK | GQLDDGMDL | nd | 0/6
GFDLNEYGIS | VIYADGQRTAYADSVK | GNEAGTFDT | -0.34 | 6/6
GFDLNSYGIS | VIYSDGRRTFYDDSVK | GKTAGTFDS | 0.15 | 6/6
GFVLNEYGIS | VIYSDGRRTFYSDSVK | GKAAGTFDS | 0.77 | 6/6
GFDLNEYGIS | VIYADGKRTAYADNVK | GNVAGTFDI | -0.12 | 6/6
GFELNSYGIS | VIYSDGRRTFYGDDVK | GKEAGTFDS | 0.47 | 5/6
GFTLNSYGIS | VIYSDGRRTFYEDDVK | GRAAGTFDL | nd | 0/6
GFTLNQYGIS | VIYSDGRRTFYSDSVK | GRTAGTFDT | -0.48 | 6/6
GFDINEYGIS | VIYADGRRTFYADSVK | GETAGTFDS | -0.38 | 6/6
SFDLNSYGIS | VIYSDGRRTFYGDSVK | GWTAGTFDS | 1.83 | 4/6
GFDLEDYGIS | VIYADGMRTAYIDSVK | GEVAGTFDV | 0.41 | 6/6
GFSLNNYGIS | VIYSDGRRTFYGDQVK | GRTAGTFDS | 0.71 | 6/6
GFTLMSYGIS | VIYSDGRRTFYADSVK | GQLAGTFDS | 0.65 | 6/6
GFTLNSYGIS | VIYSDGRRTFYSDSVK | GRAAVTFDQ | nd | 0/6
GFDLNEYGIS | VIYADGVRTAYADSVK | GEVAGTFDL | -0.45 | 6/6
GFDLEDYGIS | VIYADGRRTAYADSVK | GEQAGTFDL | -0.22 | 6/6
TFTLNEYGIS | VIYSDGRRTFYGDSVK | GRWAGTFDS | nd | 0/6
GFDLEDYGIS | VIYADGRRTAYADSVK | GEAAGTFDL | 0.06 | 6/6
GFTLNELGIS | VIYSDGRRTFYTDSVK | GRFAGTFDS | 2.02 | 4/6
GFSLNEYGIS | VIYSDGRRTFYEDSVK | GRTAGTFDS | 0.57 | 6/6
GFSLNSYGIS | VIYSDGRRTFYGDQVK | GRTAGTFDL | 0.79 | 6/6
GFDLNEYGIS | VIYADGRRTFYVDSVK | GQVAGTFDV | -0.45 | 6/6